Source: ChEMBL document CHEMBL1148776, “Structure-based optimization of protein tyrosine phosphatase 1B inhibitors: from the active site to the second phosphotyrosine binding site” (J Med Chem, 2007)

What was measured:
[1] = molecular target: T1, Tyrosine-protein phosphatase non-receptor type 1 (Homo sapiens, UniProt P18031); experiment: Inhibition of human recombinant PTP1B
T1 sequence (P18031 whole entry): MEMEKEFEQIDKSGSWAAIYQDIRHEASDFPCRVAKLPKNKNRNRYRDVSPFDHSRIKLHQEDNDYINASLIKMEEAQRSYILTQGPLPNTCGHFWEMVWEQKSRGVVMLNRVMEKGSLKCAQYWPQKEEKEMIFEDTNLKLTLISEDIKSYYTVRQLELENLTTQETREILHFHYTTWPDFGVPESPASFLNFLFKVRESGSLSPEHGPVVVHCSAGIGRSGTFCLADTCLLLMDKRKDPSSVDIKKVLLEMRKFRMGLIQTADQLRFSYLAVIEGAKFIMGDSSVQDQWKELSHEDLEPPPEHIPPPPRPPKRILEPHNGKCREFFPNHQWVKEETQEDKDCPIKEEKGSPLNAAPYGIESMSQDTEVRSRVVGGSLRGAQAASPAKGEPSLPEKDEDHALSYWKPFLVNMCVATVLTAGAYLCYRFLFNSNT

[2] = molecular target: T2, Tyrosine-protein phosphatase non-receptor type 2 (Homo sapiens, UniProt P17706)
T2 sequence (P17706 whole entry): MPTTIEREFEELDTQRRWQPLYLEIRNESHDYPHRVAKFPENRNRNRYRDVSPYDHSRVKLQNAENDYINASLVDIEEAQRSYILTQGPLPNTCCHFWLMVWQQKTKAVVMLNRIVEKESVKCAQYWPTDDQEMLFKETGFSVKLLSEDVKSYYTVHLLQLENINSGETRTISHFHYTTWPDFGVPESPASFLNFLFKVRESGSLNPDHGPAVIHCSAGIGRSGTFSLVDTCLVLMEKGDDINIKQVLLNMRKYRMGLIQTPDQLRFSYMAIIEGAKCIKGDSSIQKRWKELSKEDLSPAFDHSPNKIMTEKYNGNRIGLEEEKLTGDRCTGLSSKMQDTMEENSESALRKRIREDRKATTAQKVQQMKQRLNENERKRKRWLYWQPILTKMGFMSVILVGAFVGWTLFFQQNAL

| SMILES | Ki [1] | Ki [2] |
| --- | --- | --- |
| O=C(O)COc1c(C(=O)O)sc(-c2cccc(NC3CCCCC3)c2)c1Br | 210 nM |  |
| O=C(O)COc1c(C(=O)O)sc(-c2cccc(NC3CCN(S(=O)(=O)Cc4ccccc4)CC3)c2)c1Br |  | 5 nM |
| Cc1cccc(C)c1NC(=O)N1CCC(CNc2cccc(-c3sc(C(=O)O)c(OCC(=O)O)c3Br)c2)CC1 |  | 9 nM |
| O=C(O)COc1c(C(=O)O)sc(-c2cccc(NCc3ccccc3)c2)c1Br | 470 nM |  |
